Values of other authors, collected in article PMC6062831 (ACS Central Science, 2018).

Settings: calculated by Maier et al.; cited from earlier work

## Clc1ccc2c(c1)C(N1CCNCC1)=Nc1ccccc1O2 [amoxapine]
  calculated colon concentration: 138 µM
  calculated small intestinal concentration: 106 µM
